Assay results: ChEMBL document CHEMBL2177029, “Medicinal chemistry of A₃ adenosine receptor modulators: pharmacological activities and therapeutic implications” (J Med Chem, 2012)

By UniProt entry, the sequences of proteins in these tests, tags left out.
UniProt P30542, whole entry: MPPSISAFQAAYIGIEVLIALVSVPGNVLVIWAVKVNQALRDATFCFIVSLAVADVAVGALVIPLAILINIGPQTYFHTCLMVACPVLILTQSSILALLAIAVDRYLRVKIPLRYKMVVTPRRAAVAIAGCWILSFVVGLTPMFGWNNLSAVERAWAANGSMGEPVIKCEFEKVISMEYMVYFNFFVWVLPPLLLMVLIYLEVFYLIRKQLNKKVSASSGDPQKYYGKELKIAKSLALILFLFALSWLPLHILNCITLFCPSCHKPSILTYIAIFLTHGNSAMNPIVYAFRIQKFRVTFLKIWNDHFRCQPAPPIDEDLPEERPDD
UniProt P25099, whole entry: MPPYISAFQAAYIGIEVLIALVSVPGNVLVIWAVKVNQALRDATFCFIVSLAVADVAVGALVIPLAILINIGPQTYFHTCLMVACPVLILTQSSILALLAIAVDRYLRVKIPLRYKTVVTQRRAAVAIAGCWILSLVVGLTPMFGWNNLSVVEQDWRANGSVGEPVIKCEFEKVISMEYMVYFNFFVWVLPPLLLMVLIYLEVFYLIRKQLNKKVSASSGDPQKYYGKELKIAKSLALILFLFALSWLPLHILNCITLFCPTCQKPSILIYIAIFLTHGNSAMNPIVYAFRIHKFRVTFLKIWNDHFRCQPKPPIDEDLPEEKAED
UniProt P30543, whole entry: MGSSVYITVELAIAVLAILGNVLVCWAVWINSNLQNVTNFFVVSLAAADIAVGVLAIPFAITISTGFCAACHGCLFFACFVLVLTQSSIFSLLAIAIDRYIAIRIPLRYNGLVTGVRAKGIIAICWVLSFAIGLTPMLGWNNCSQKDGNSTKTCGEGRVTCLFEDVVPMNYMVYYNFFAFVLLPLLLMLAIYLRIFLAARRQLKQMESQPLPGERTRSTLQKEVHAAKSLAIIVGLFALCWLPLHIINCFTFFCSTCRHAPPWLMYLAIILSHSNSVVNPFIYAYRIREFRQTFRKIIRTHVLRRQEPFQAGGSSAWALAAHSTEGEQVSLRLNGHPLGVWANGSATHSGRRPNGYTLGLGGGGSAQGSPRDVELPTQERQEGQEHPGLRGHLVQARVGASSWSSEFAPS

Key:
Assay in all cases: biochemical
Adenosine receptor A1 [1] = target: Adenosine receptor A1 (Homo sapiens, UniProt P30542)
Adenosine receptor A2a [2] = target: Adenosine receptor A2a (Homo sapiens, UniProt P29274)
Adenosine receptor A1 [3] = target: Adenosine receptor A1 (Rattus norvegicus, UniProt P25099)
Adenosine receptor A2a [4] = target: Adenosine receptor A2a (Rattus norvegicus, UniProt P30543)

Compound: CCNC(=O)[C@H]1O[C@@H](n2cnc3c(NC(=O)Nc4ccc(S(=O)(=O)N(C)C(C)C)cc4)ncnc32)[C@H](O)[C@@H]1O
- Ki (Adenosine receptor A1 [1]): 325 nM
- Ki (Adenosine receptor A2a [2]): > 1000 nM

Compound: O=C(Cc1ccccc1)Nc1nc2ccc(Cl)cc2c2nc(-c3ccco3)nn12
- Ki (Adenosine receptor A1 [1]): 231 nM

Compound: OC[C@H]1O[C@@H](n2cnc3c(NCC4c5ccccc5-c5ccccc54)ncnc32)[C@H](O)[C@@H]1O
- Ki (Adenosine receptor A1 [3]): 9.4 nM

Compound: CCCCn1c(=O)c2c(ncn2[C@@H]2O[C@H](C(=O)NC)[C@@H](O)[C@H]2O)n(CCCC)c1=O
- Ki (Adenosine receptor A2a [4]): > 10000 nM
